Data taken from ChEMBL document CHEMBL4610124, “Novel Thienopyrimidine Inhibitors of Leishmania N-Myristoyltransferase with On-Target Activity in Intracellular Amastigotes” (J Med Chem, 2020).

Test system: human NMT1 versus Leishmania donovani NMT
Assay: Selectivity ratio of IC50 for human NMT1 to IC50 for Leishmania donovani NMT
Assay type: toxicity
Conditions: read-out: Ratio IC50

CN(CCC#N)c1nc(N(C)[C@H]2C[C@H]3CC[C@@H](C2)N3C)nc2ccccc12
selectivity ratio: > 6

CN(CCC#N)c1nc(N(C)C2CCNCC2)nc2ccccc12
selectivity ratio: > 88
